How the values were obtained:
[1] = tested on: Lys(Dnp)-ATNATKHPRIVGG-Lys(Abz)
[2] = tested on: Lys(Dnp)-ATNATLDPRIVGG-Lys(Abz)
[3] = tested on: Lys(Dnp)-ATNATRIPRIVGG-Lys(Abz)
[4] = tested on: Lys(Dnp)-ATNATANPRIVGG-Lys(Abz)
[5] = tested on: Lys(Dnp)-ATNATX4X3PRIVGG-Lys(Abz), X4 = G, X3 = S
[6] = tested on: Lys(Dnp)-ATNATILPRIVGG-Lys(Abz)
[7] = tested on: Lys(Dnp)-ATNATDNPRIVGG-Lys(Abz)
[8] = tested on: Lys(Dnp)-ATNATVTPRIVGG-Lys(Abz)
[9] = tested on: Lys(Dnp)-ATNATDKPRIVGG-Lys(Abz)
[10] = tested on: Lys(Dnp)-ATNATVEPRIVGG-Lys(Abz)
[11] = tested on: Lys(Dnp)-ATNATX4X3PRIVGG-Lys(Abz), X4 = H, X3 = F
[12] = tested on: Lys(Dnp)-ATNATX4X3PRIVGG-Lys(Abz), X4 = E, X3 = A
[13] = tested on: Lys(Dnp)-ATNATLMPRIVGG-Lys(Abz)
[14] = tested on: Lys(Dnp)-ATNATFNPRIVGG-Lys(Abz)
[15] = tested on: Lys(Dnp)-ATNATX4X3PRIVGG-Lys(Abz), X4 = S, X3 = W
[16] = tested on: Lys(Dnp)-ATNATTAPRIVGG-Lys(Abz)
[17] = tested on: Lys(Dnp)-ATNATX4X3PRIVGG-Lys(Abz), X4 = H, X3 = S
[18] = tested on: Lys(Dnp)-ATNATIHPRIVGG-Lys(Abz)
[19] = tested on: Lys(Dnp)-ATNATMYPRIVGG-Lys(Abz)
[20] = tested on: Lys(Dnp)-ATNATMHPRIVGG-Lys(Abz)
[21] = tested on: Lys(Dnp)-ATNATPNPRIVGG-Lys(Abz)
[22] = tested on: Lys(Dnp)-ATNATFFPRIVGG-Lys(Abz)
[23] = tested on: Lys(Dnp)-ATNATX4X3PRIVGG-Lys(Abz), X4 = S, X3 = Q
[24] = tested on: Lys(Dnp)-ATNATDGPRIVGG-Lys(Abz)
[25] = tested on: Lys(Dnp)-ATNATLLPRIVGG-Lys(Abz)
[26] = tested on: Lys(Dnp)-ATNATKDPRIVGG-Lys(Abz)
[27] = tested on: Lys(Dnp)-ATNATYEPRIVGG-Lys(Abz)
[28] = tested on: Lys(Dnp)-ATNATX4X3PRIVGG-Lys(Abz), X4 = T, X3 = N
[29] = tested on: Lys(Dnp)-RGDSVVYGLRIVGG-Lys(Abz)
[30] = tested on: Lys(Dnp)-ATNATWPPRIVGG-Lys(Abz)
[31] = tested on: Lys(Dnp)-DNEEGFFSARIVGG-Lys(Abz)
[32] = tested on: Lys(Dnp)-ATNATETPRIVGG-Lys(Abz)
[33] = tested on: Lys(Dnp)-ATNATPVPRIVGG-Lys(Abz)
[34] = tested on: Lys(Dnp)-ATNATTTPRIVGG-Lys(Abz)
[35] = tested on: Lys(Dnp)-ATNATAWPRIVGG-Lys(Abz)
[36] = tested on: Lys(Dnp)-YDEDENQSPRIVGG-Lys(Abz)
[37] = tested on: Lys(Dnp)-ATNATPTPRIVGG-Lys(Abz)
[38] = tested on: Lys(Dnp)-ATNATGGPRIVGG-Lys(Abz)
[39] = tested on: Lys(Dnp)-ATNATX4X3PRIVGG-Lys(Abz), X4 = S, X3 = M
[40] = tested on: Lys(Dnp)-ATNATX4X3PRIVGG-Lys(Abz), X4 = S, X3 = S
[41] = tested on: Lys(Dnp)-ATNATAIPRIVGG-Lys(Abz)
[42] = tested on: Lys(Dnp)-ATNATX4X3PRIVGG-Lys(Abz), X4 = E, X3 = K

## Human plasma purified alpha-thrombin
[1]
  FIIa kcat/KM: 900 M⁻¹ s⁻¹
  Specificity Ratio (FIIa/FXa): 16
[2]
  FIIa kcat/KM: 3100 M⁻¹ s⁻¹
  Specificity Ratio (FIIa/FXa): 3
[3]
  FIIa kcat/KM: 1000 M⁻¹ s⁻¹
  Specificity Ratio (FIIa/FXa): 1

## Human plasma purified α-thrombin
[4]
  FIIa kcat/KM: 4000 M⁻¹ s⁻¹
  Specificity Ratio (FIIa/FXa): 51
[5]
  FIIa kcat/KM: 1300 M⁻¹ s⁻¹
  Specificity Ratio (FIIa/FXa): 26
[6]
  FIIa kcat/KM: 15000 M⁻¹ s⁻¹
  Specificity Ratio (FIIa/FXa): 21
  kcat/KM: 15000 M⁻¹ s⁻¹
[7]
  kcat/KM: 130 M⁻¹ s⁻¹
[8]
  FIIa kcat/KM: 16000 M⁻¹ s⁻¹
  Functional Selectivity (Specificity*FIIa kcat/KM): 3.7e+06
  kcat/KM: 16000 M⁻¹ s⁻¹
[9]
  FIIa kcat/KM: 10 M⁻¹ s⁻¹
  Functional Selectivity (Specificity*FIIa kcat/KM): 9.9
  Specificity Ratio (FIIa/FXa): 1
[10]
  FIIa kcat/KM: 5400 M⁻¹ s⁻¹
  Specificity Ratio (FIIa/FXa): 50
  kcat/KM: 5400 M⁻¹ s⁻¹
[11]
  FIIa kcat/KM: 1000 M⁻¹ s⁻¹
  Specificity Ratio (FIIa/FXa): 25
[12]
  FIIa kcat/KM: 400 M⁻¹ s⁻¹
  Specificity Ratio (FIIa/FXa): 92
[13]
  FIIa kcat/KM: 47000 M⁻¹ s⁻¹
  Functional Selectivity (Specificity*FIIa kcat/KM): 810000
  kcat/KM: 47000 M⁻¹ s⁻¹
[14]
  FIIa kcat/KM: 6200 M⁻¹ s⁻¹
  Specificity Ratio (FIIa/FXa): 31
  kcat/KM: 6200 M⁻¹ s⁻¹
[15]
  FIIa kcat/KM: 1500 M⁻¹ s⁻¹
  Specificity Ratio (FIIa/FXa): 36
[16]
  kcat/KM: 630 M⁻¹ s⁻¹
[17]
  FIIa kcat/KM: 1300 M⁻¹ s⁻¹
  Specificity Ratio (FIIa/FXa): 21
[18]
  FIIa kcat/KM: 26000 M⁻¹ s⁻¹
  Functional Selectivity (Specificity*FIIa kcat/KM): 830000
  kcat/KM: 26000 M⁻¹ s⁻¹
[19]
  FIIa kcat/KM: 12000 M⁻¹ s⁻¹
  Functional Selectivity (Specificity*FIIa kcat/KM): 1.3e+06
  kcat/KM: 12000 M⁻¹ s⁻¹
[20]
  FIIa kcat/KM: 18000 M⁻¹ s⁻¹
  Functional Selectivity (Specificity*FIIa kcat/KM): 1.1e+06
  kcat/KM: 18000 M⁻¹ s⁻¹
[21]
  kcat/KM: 6700 M⁻¹ s⁻¹
[22]
  FIIa kcat/KM: 9500 M⁻¹ s⁻¹
  Functional Selectivity (Specificity*FIIa kcat/KM): 1.9e+06
  kcat/KM: 9500 M⁻¹ s⁻¹
[23]
  FIIa kcat/KM: 1200 M⁻¹ s⁻¹
  Specificity Ratio (FIIa/FXa): 27
[24]
  kcat/KM: 350 M⁻¹ s⁻¹
[25]
  FIIa kcat/KM: 16000 M⁻¹ s⁻¹
  Specificity Ratio (FIIa/FXa): 27
  kcat/KM: 16000 M⁻¹ s⁻¹
[26]
  kcat/KM: 1600 M⁻¹ s⁻¹
[27]
  kcat/KM: 1700 M⁻¹ s⁻¹
[28]
  FIIa kcat/KM: 600 M⁻¹ s⁻¹
  Specificity Ratio (FIIa/FXa): 46
[29]
  FIIa kcat/KM: 410 M⁻¹ s⁻¹
  Functional Selectivity (Specificity*FIIa kcat/KM): 98000
  Specificity Ratio (FIIa/FXa): 239
  kcat/KM: 410 M⁻¹ s⁻¹
[30]
  Functional Selectivity (Specificity*FIIa kcat/KM): 5.6e+06
[31]
  FIIa kcat/KM: 300 M⁻¹ s⁻¹
  Functional Selectivity (Specificity*FIIa kcat/KM): 390
  Specificity Ratio (FIIa/FXa): 1
[32]
  kcat/KM: 390 M⁻¹ s⁻¹
[33]
  kcat/KM: 13000 M⁻¹ s⁻¹
[34]
  FIIa kcat/KM: 1300 M⁻¹ s⁻¹
  Specificity Ratio (FIIa/FXa): 74
  kcat/KM: 1300 M⁻¹ s⁻¹
[35]
  FIIa kcat/KM: 15000 M⁻¹ s⁻¹
  Specificity Ratio (FIIa/FXa): 32
  kcat/KM: 15000 M⁻¹ s⁻¹
[36]
  FIIa kcat/KM: 930 M⁻¹ s⁻¹
  Functional Selectivity (Specificity*FIIa kcat/KM): 2700
  Specificity Ratio (FIIa/FXa): 3
  kcat/KM: 930 M⁻¹ s⁻¹
[37]
  FIIa kcat/KM: 22000 M⁻¹ s⁻¹
  Specificity Ratio (FIIa/FXa): 26
  kcat/KM: 22000 M⁻¹ s⁻¹
[38]
  kcat/KM: 820 M⁻¹ s⁻¹
[39]
  FIIa kcat/KM: 960 M⁻¹ s⁻¹
  Specificity Ratio (FIIa/FXa): 21
[40]
  FIIa kcat/KM: 1000 M⁻¹ s⁻¹
  Specificity Ratio (FIIa/FXa): 26
[41]
  FIIa kcat/KM: 12000 M⁻¹ s⁻¹
  Functional Selectivity (Specificity*FIIa kcat/KM): 660000
  kcat/KM: 12000 M⁻¹ s⁻¹
[42]
  FIIa kcat/KM: 650 M⁻¹ s⁻¹
  Specificity Ratio (FIIa/FXa): 83
